The target in this experiment is mA2a (Mus musculus (Mouse), UniProt Q60613). The experiment in a line: cAMP inhibition assay in mA2a/CHO cells. The class given is cell-based. The settings on record: adenosine stimulation, read-out: cAMP & FLIPR IC50 (nM) mA2a. Here is the method:
hA2a/CHO, hA2b/CHO and mA2a/CHO (Genscript) were plated at 5×10^3 cells/well into 384-well polystyrene plates at the day of experiment. Compounds were pre-incubated with cells for 30 min at 37° C., 5% CO2. Then […] adenosine was added to the cells and incubated for 30 min at 37° C., 5% CO2. Detection reagent (CISBIO) was added and the plates were incubated for 60 min at room temperature. The signal was captured by Envision.
FLIPR™ and cAMP inhibition activities of exemplary compounds in different adenosine receptor over-expressing cell lines are shown in Table 4 below.

By UniProt entry, the sequences of proteins in these tests, tags left out.
UniProt Q60613, whole entry: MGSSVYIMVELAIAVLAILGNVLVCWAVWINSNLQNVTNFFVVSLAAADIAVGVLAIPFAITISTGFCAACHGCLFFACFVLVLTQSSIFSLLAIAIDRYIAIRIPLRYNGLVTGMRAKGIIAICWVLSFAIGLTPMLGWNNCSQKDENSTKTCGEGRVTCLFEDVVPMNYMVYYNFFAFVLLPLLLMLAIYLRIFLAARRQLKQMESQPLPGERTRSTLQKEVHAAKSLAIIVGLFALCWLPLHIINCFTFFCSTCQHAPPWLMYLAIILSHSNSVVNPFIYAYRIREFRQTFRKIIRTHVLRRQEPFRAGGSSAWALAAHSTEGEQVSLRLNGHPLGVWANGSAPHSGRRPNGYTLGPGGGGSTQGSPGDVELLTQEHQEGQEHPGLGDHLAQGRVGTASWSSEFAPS

Broadly, the IC50 is the point on the concentration scale where inhibition reaches its midpoint. Turning to `Cn1cc(-c2c(-c3ncco3)nc(N)n3nc(Cc4ncccc4OC(F)F)nc23)ccc1=O` [Example 71, 5-(5-amino-2-[[3-(difluoromethoxy)pyridin-2-yl]methyl]-7-(1,3-oxazol-2-yl)-[1,2,4]triazolo[1,5-c]pyrimidin-8-yl)-1-methyl-1,2-dihydropyridin-2-one], the IC50 was found to be 6.4 nM.

The values are drawn from patent US10858365B2, “Triazolo-pyrimidine compounds and uses thereof” (Dizal (Jiangsu) Pharmaceutical Co., Ltd., priority 2018, dated 2020).
